The values below come from paper PMC6718548, “Tau pathology reduction with SM07883, a novel, potent, and selective oral DYRK1A inhibitor: A potential therapeutic for Alzheimer's disease” (Aging Cell, 2019).

For this experiment, the target named is T1, DYRK1a (Homo sapiens, UniProt Q13627).
T1 construct: purchased Thermo Fisher Scientific
The experiment can be described thus: DYRK1A kinase assay (Z-Lyte / SelectScreen IC50). It is filed as biochemical. To be noted: Suppl. Table 2 comparison with commercially available inhibitors.

Molecules are shown by their SMILES.

As for `CCN1/C(=C/C(C)=O)Sc2ccc(OC)cc21` [TG003], half-maximal inhibition (IC50) was put at 70 nM.
